Key:
CHOK1 GS clone A = experiment: Batch cell culture, Tyr replaced by derivative; settings: for titer production / maximum IgG concentration: after seven days; for maximum VCD: after six days (negative control: after seven days)
Description: For cell culture experiments, a CHOK1 GS suspension cell line expressing a human IgG1, was used. Cells were cultivated in triplicates or quadruplicates in modified EX-CELL® Advanced HD Perfusion Medium (Merck Darmstadt, Germany) using 50 mL spin tubes with a starting culture volume of 30 mL and a seeding density of 0.3x10^6 viable cells/mL. Incubation was carried out at 37°C, 5% CO2, 80 % humidity and an agitation of 320 rpm. The Tyr derivatives were added in the CCM (modified EX-CELL® Advanced HD Perfusion Medium depleted in Tyr) instead of the amino acid Tyr. The pH of the CCM was neutral (pH 7.3±0.1). […] . Besides, Pro-Tyr, Gly-Tyr and Tyr-His were also tested in comparison to N-L-NVa-Tyr HCl. Experiments for Gly-Tyr and N-L-NVa-Tyr HCl were repeated at least 3 times, as well as for positive and negative control.
Viable cell density (VCD = viable cells/mL) and viability were evaluated with a Vi-CELL XR (Beckman Coulter, Fullerton, CA). Metabolite concentrations were monitored using a Cedex Bio HT (Roche Diagnostics, Mannheim, Germany) based on spectrophotometric and turbidometric methods. Quantification of amino acids was carried out via UPLC after derivatization with the AccQ•TagUltra® reagent kit. Derivatization, chromatography and data analysis were carried out following the supplier recommendations (Waters, Milford, MA).

[1] = Storage stability of 6-fold concentrated CCM (UPLC amino acid analysis); settings: for stability of 6-fold concentrated CCM: 4°C and RT
Description: […] . The concentration of Tyr, N-L-NVa-Tyr HCl and NVa was determined by amino acid analysis using UPLC. To remove undissolved compound, a filtration step (0.22 µm pore size) was performed prior to amino acid analysis.

[2] = Maximum solubility in 6-fold concentrated CCM (oversaturated solution, UPLC)
Description: […] . Samples were taken after 30 minutes of stirring. Measurement was performed after a filtration step (0.22µm) to remove undissolved compound.

CHOZN GS clone E = experiment: Batch cell culture, Tyr replaced by derivative; settings: for titer: after seven days in culture (negative control: maximum titer); for viability: constantly; for maximum VCD: on day seven
Description: (§1) Therefore, cells were cultivated in triplicates or quadruplicates in modified EX-CELL® Advanced HD Perfusion Medium (Merck Darmstadt, Germany) using 50 mL spin tubes with a starting culture volume of 30 mL and a seeding density of 0.3x10^6 viable cells/mL. Incubation was carried out at 37°C, 5% CO2, 80 % humidity and an agitation of 320 rpm. The Tyr derivatives were added in the CCM (modified EX-CELL® Advanced HD Perfusion Medium depleted in Tyr) instead of the canonical amino acid Tyr. The pH of the CCM was neutral (pH 7.3±0.1). […] . No negative control was used for CHOK1 non-GS clone.
(§2) Viable cell density (VCD = viable cells/mL) and viability were evaluated with a Vi-CELL XR (Beckman Coulter, Fullerton, CA). Metabolite concentrations were monitored using a Cedex Bio HT (Roche Diagnostics, Mannheim, Germany) based on spectrophotometric and turbidimetric methods. Quantification of amino acids was carried out via UPLC after derivatization with the AccQ•TagUltra® reagent kit. Derivatization, chromatography and data analysis were carried out following the supplier recommendations (Waters, Milford, MA).

CHOK1 non-GS clone = experiment: Batch cell culture, Tyr replaced by derivative; settings: for maximum VCD: after seven days in culture; for viability: constantly
Description: as §1, §2

CHOZN GS clone B = experiment: Batch cell culture, Tyr replaced by derivative; settings: for viability: constantly; for titer production: on day seven of culture
Description: as §1, §2

CHOZN GS clone C = experiment: Batch cell culture, Tyr replaced by derivative; settings: for titer production: after seven days in culture; for viability: constantly, until day six
Description: as §1, §2

CHOZN GS clone A = experiment: Batch cell culture, Tyr replaced by derivative; settings: for viability: constantly; for titer production: on day seven
Description: as §1, §2

CHOZN GS clone D [3] = experiment: Batch cell culture, Tyr replaced by derivative; settings: for titer: after seven days; for viability: constantly, until day six; for maximum VCD: positive control after seven days, N-L-NVa-Tyr HCl on day six
Description: as §1, §2

[4] = Maximum solubility in water (oversaturated solution, filtration, UPLC amino acid analysis); settings: 25°C, pH 7.3±0.1
Description: The maximum solubility of N-L-norvalyl-L-tyrosine HCl (N-L-NVa-Tyr HCl) was compared with the solubility of canonical amino acid L-Tyrosine (Tyr) and salts thereof in water at 25°C and pH 7.3±0.1 through the preparation of an oversaturated solution. Measurement was performed after a filtration step (0.22µm) to remove undissolved compound. The solution was measured by amino acid analysis using ultra performance liquid chromatography (UPLC).

CHO DG44 = experiment: Small scale dynamic perfusion culture; settings: for maximum titer: after seven days in culture; for maximum VCD: on day six
CHOZN GS clone D [5] = experiment: Small scale dynamic perfusion culture; settings: for maximum titer: after nine days in culture (negative control: on day six); for maximum VCD: on day 10
CHOZN GS clone G = experiment: Small scale dynamic perfusion culture; settings: for maximum titer: after nine days in culture; for maximum VCD: on day 10
CHOZN GS clone F = experiment: Small scale dynamic perfusion culture; settings: for maximum titer: after nine days in culture; for maximum VCD: on day six
[6] = Solubility in 6-fold concentrated CCM by turbidity measurement; settings: pH 7.3
Description: . A solution having a turbidity below 5 NTU is considered soluble. […] . […] Further details can be found in Example 11. • Figures 12, 13 and 14 show features of recombinant proteins. Further details can be found in Example 12. • Figures 15, 16, 17 and 18 show the cell performance of CHOZN GS clone D, CHOZN GS clone F, CHO DG44 and CHOZN GS clone G in dynamic perfusion culture. Further details can be found in Example 13.

[7] = 6-fold concentrated CCM, RT, light protected

O=C(O)[C@H](Cc1ccc(O)cc1)NC(=O)[C@@H]1CCCN1
decrease of titer (CHOK1 GS clone A): over 60%

CCC[C@H](N)C(=O)N[C@@H](Cc1ccc(O)cc1)C(=O)O.Cl
stability of 6-fold concentrated CCM ([1]; light protected, three months): stable
free Tyr / NVa detected ([1]; 4°C, 92 days): No free Tyr nor NVa was detected
stable (concentration constant) for ([1]; 6-fold concentrated CCM, 4°C, light protected): 92 days
stable for [1, 7]: 78 days
free Tyr / NVa detected ([1]; RT, three months): neither free Tyr nor NVa was detected
decrease of concentration of N-L-NVa-Tyr HCl ([1]; three months of storage at room temperature): 10%
titer production / maximum IgG concentration (CHOK1 GS clone A; batch): approximately 160 mg/L
viability (CHOK1 GS clone A; batch, constantly): above 90%
maximum VCD (CHOK1 GS clone A; batch): 12±1 x10^6 viable cells/mL
VCD and IgG concentration compared to the positive control (CHOK1 GS clone A; seven days batch process): comparable
maximum solubility ([2]; 6-fold concentrated modified EX-CELL Advanced HD Perfusion Medium depleted in Tyr, pH 7.3±0.1, 25°C, 30 minutes stirring): approximately 54 mM
times more soluble than Tyr 2Na salt 2H2O ([2]; modified EX-CELL Advanced HD Perfusion Medium depleted in Tyr): at least 18 times
titer (CHOZN GS clone E): 597 ± 8 mg/L
cell performance compared to the positive control (CHOZN GS clone E; batch): similar
viability (CHOZN GS clone E): above 98%
maximum VCD (CHOZN GS clone E): 16 x10^6 viable cells/mL
maximum VCD (CHOK1 non-GS clone): 15-16 x10^6 viable cells/mL
cell performance compared to the positive control (CHOK1 non-GS clone; batch): similar
increased titer production (CHOK1 non-GS clone; compared to positive control): 23%
viability (CHOK1 non-GS clone): above 95%
cell performance compared to the positive control (CHOZN GS clone B; batch): similar
maximum VCD (CHOZN GS clone B; batch): 9-10 x10^6 viable cells/mL
viability (CHOZN GS clone B): above 97%
titer production (CHOZN GS clone B): 33 mg/L
titer production (CHOZN GS clone C): 430 mg/L
cell performance compared to the positive control (CHOZN GS clone C; batch): similar
maximum VCD (CHOZN GS clone C; batch): 6.5-8 x10^6 viable cells/mL
viability (CHOZN GS clone C): above 95%
cell performance compared to the positive control (CHOZN GS clone A; batch): similar
maximum VCD (CHOZN GS clone A; batch): approximately 11.0 x10^6 viable cells/mL
viability (CHOZN GS clone A): above 97%
titer production (CHOZN GS clone A): 230 mg/L
titer (CHOZN GS clone D [3]): 609 ± 39 mg/L
cell performance compared to the positive control (CHOZN GS clone D [3]; batch): similar
viability (CHOZN GS clone D [3]): above 95%
maximum VCD (CHOZN GS clone D [3]): 16.9±0.5 x10^6 viable cells/mL
maximal solubility [4]: 70.7 ± 0.6 mM
viability (CHO DG44; after day seven): below 90%
maximum titer (CHO DG44): 1360 ± 3 mg/L
viability (CHO DG44; constantly, until day seven): above 90%
cell performance compared to the positive control (CHO DG44; dynamic perfusion): similar
maximum VCD (CHO DG44): 80 x10^6 viable cells/mL
maximum titer (CHOZN GS clone D [5]): 1400 ± 22 mg/L
viability (CHOZN GS clone D [5]; constantly, until day five): above 90%
cell performance compared to the positive control (CHOZN GS clone D [5]; dynamic perfusion): similar
viability (CHOZN GS clone D [5]; from day six): 85 - 90%
maximum VCD (CHOZN GS clone D [5]): 100 x10^6 viable cells/mL
maximum titer (CHOZN GS clone G): 1400 ± 22 mg/L
viability (CHOZN GS clone G; constantly, until day five): above 90%
cell performance compared to the positive control (CHOZN GS clone G; dynamic perfusion): similar
viability (CHOZN GS clone G; from day six): 85 - 90%
maximum VCD (CHOZN GS clone G): 100 x10^6 viable cells/mL
maximum titer (CHOZN GS clone F): 1379 ± 23 mg/L
viability (CHOZN GS clone F; constantly, until day six): above 95%
cell performance compared to the positive control (CHOZN GS clone F; dynamic perfusion): similar
viability (CHOZN GS clone F; from day six): below 90%
maximum VCD (CHOZN GS clone F): 70 x10^6 viable cells/mL
decrease in turbidity [6]: more than 95%

N[C@@H](Cc1ccc(OP(=O)(O)O)cc1)C(=O)O
titer production / maximum IgG concentration (CHOK1 GS clone A; batch): 34 ± 3 mg/L
maximum VCD (CHOK1 GS clone A; batch): 3.8±0.5 x10^6 viable cells/mL
titer (CHOZN GS clone E): below 100 mg/L
VCD maintained (CHOZN GS clone E; batch): approximately 2.0 x10^6 viable cells/mL
maximum titer (CHOZN GS clone D [5]): 253 ± 3 mg/L
VCD maintained (CHOZN GS clone D [5]; dynamic perfusion): approximately 13 x10^6 viable cells/mL

N[C@@H](Cc1ccc(O)cc1)C(=O)O
stability of 6-fold concentrated CCM ([1]; light protected, three months): unstable
stable for [1, 7]: 14 days
decrease in tyrosine concentration after ([1]; liquid media, general statement): about 20 days
titer production / maximum IgG concentration (CHOK1 GS clone A; batch): approximately 160 mg/L
maximum VCD (CHOK1 GS clone A; batch): 12±1 x10^6 viable cells/mL
titer (CHOZN GS clone E): 685 ± 5 mg/L
viability (CHOZN GS clone E): above 98%
maximum VCD (CHOZN GS clone E): 16 x10^6 viable cells/mL
maximum VCD (CHOK1 non-GS clone): 15-16 x10^6 viable cells/mL
viability (CHOK1 non-GS clone): above 95%
maximum VCD (CHOZN GS clone B; batch): 9-10 x10^6 viable cells/mL
viability (CHOZN GS clone B): above 97%
titer production (CHOZN GS clone B): 33 mg/L
titer production (CHOZN GS clone C): 430 mg/L
maximum VCD (CHOZN GS clone C; batch): 6.5-8 x10^6 viable cells/mL
viability (CHOZN GS clone C): above 95%
maximum VCD (CHOZN GS clone A; batch): approximately 11.0 x10^6 viable cells/mL
viability (CHOZN GS clone A): above 97%
titer production (CHOZN GS clone A): 230 mg/L
titer (CHOZN GS clone D [3]): 668 ± 55 mg/L
viability (CHOZN GS clone D [3]): above 95%
maximum VCD (CHOZN GS clone D [3]): 20±1 x10^6 viable cells/mL
viability (CHO DG44; after day seven): below 90%
maximum titer (CHO DG44): 1304 ± 18 mg/L
viability (CHO DG44; constantly, until day seven): above 90%
maximum VCD (CHO DG44): 80 x10^6 viable cells/mL
maximum titer (CHOZN GS clone D [5]): 1425 ± 39 mg/L
viability (CHOZN GS clone D [5]; constantly, until day five): above 90%
viability (CHOZN GS clone D [5]; from day six): 85 - 90%
maximum VCD (CHOZN GS clone D [5]): 100 x10^6 viable cells/mL
maximum titer (CHOZN GS clone G): 1425 ± 39 mg/L
viability (CHOZN GS clone G; constantly, until day five): above 90%
viability (CHOZN GS clone G; from day six): 85 - 90%
maximum VCD (CHOZN GS clone G): 100 x10^6 viable cells/mL
maximum titer (CHOZN GS clone F): 1335 ± 38 mg/L
viability (CHOZN GS clone F; constantly, until day six): above 95%
viability (CHOZN GS clone F; from day six): below 90%
maximum VCD (CHOZN GS clone F): 70 x10^6 viable cells/mL

N[C@@H](Cc1ccc(O)cc1)C(=O)N[C@@H](Cc1cnc[nH]1)C(=O)O
cell performance compared to the negative control pTyr 2Na salt (CHOK1 GS clone A; batch): lower

NCC(=O)N[C@@H](Cc1ccc(O)cc1)C(=O)O
cell performance compared to the negative control pTyr 2Na salt (CHOK1 GS clone A; batch): lower
